Experimental data reported in PubChem BioAssay (EPA / NIEHS).
Only a part is listed here, and it is no random draw. A structure can be active in one record and inactive in another. The source made the active and inactive calls. How the source made its calls: active means hit-call score of the fitted dose curve at least 0.9, where 1 is the maximum; inactive means score below 0.9.

Test: ATG_PPRE_CIS: Attagene CIS-FACTORIAL HepG2 Assay for human Peroxisome Proliferator-activated Response Element (PPRE) (AID 2282958)
Conditions: HepG2 PPRE cis-element reporter, Attagene transcription factor profiling; actives raise or lower the signal

outcome, inactive:
CC(C)(C)c1ccc(O)c(C(C)(C)C)c1
CCCC[N+]1(C)CCCC1
O=C(O)CC(O)C(=O)O (stereo not given)
CCCCCCCCCCC
Clc1ccc(Sc2cc(Cl)c(Cl)cc2Cl)cc1
OCc1ccccc1
COCC(C)O (stereo not given)
CC1(C)CC(N=C=O)CC(C)(CN=C=O)C1 (stereo not given)
CC(=O)c1ccccc1O
O=C(O)C1CCC(C(=O)O)CC1 (stereo not given)
C=C(C)c1cccc(C(C)(C)N=C=O)c1
CC=CC(=O)N(CC)c1ccccc1C
N#CC1(N)CCCCC1
CCCCCCCCN(C)C
CCCCCCOC(=O)CCCCC
CCCCCCCCCCCC
[Cl][Eu]([Cl])[Cl]
CCCCc1ccc(N)cc1
CCN(CCN)c1cccc(C)c1
O=C(O)c1cccnc1C(=O)O
CN(C)C
C#CC(O)C(CC)CCCC (stereo not given)
CCOCCOCCOCCO
COCCOCCOCCOC
Cc1ccncc1
O=C1O[C@@H]2[C@@H](O)[C@H](O)O[C@@H]2[C@H]1O
CC(C)c1ccc2c(c1)CC[C@H]1[C@](C)(CN)CCC[C@]21C
CCCCCCCCCCCC(=O)OCC(O)CO (stereo not given)
C=CC(=O)OCCCCCCCCCC
CCCN(CCC)C(=O)SCC
CC(C)c1ccc(C(C)C)cc1
C1=CC2C3C=CC(C3)C2C1 (stereo not given)
C=C(C)C(=O)Nc1ccc(Cl)c(Cl)c1
O=C(Nc1ccc2c(O)c(N=Nc3ccc(N=Nc4ccc(S(=O)(=O)O)cc4)cc3)c(S(=O)(=O)O)cc2c1)c1ccccc1
Cc1nccn1-c1ccc(Sc2cccc(C3(C(N)=O)CCOCC3)c2)cc1
CCCCCCCCCCCCCCCCCC(=O)O

AC50, active:
OCc1ccccc1 34.6 µM
C=C1CC/C=C(\C)CC[C@@H]2[C@@H]1CC2(C)C 131 µM
CCCCCCCCCCCCCC(=O)O 124 µM
CCCCCCCCCCCC 2.7 µM
CCCCCCCOC(=O)c1ccc(O)cc1 59.4 µM

Test: ATG_RORE_CIS: Attagene CIS-FACTORIAL HepG2 Assay for human RAR-related Orphan Receptor Element (RORE) (AID 2282959)
Conditions: HepG2 Attagene cis-factorial RORE reporter, mRNA; actives raise or lower the signal

outcome, inactive:
COCC(C)O (stereo not given)
[Cl][Eu]([Cl])[Cl]
CN(C)C
CC(C)c1ccc2c(c1)CC[C@H]1[C@](C)(CN)CCC[C@]21C
